Data reported in patent US6357163B1, “Use of nucleic acid analogues in diagnostics and analytical procedures” (priority 1991, dated 2002).

Test system: 5′-AAA-AGA-AGA-A
Assay: Melting temperature (Tm) of hybrid with oligodeoxyribonucleotide
Type: binding
Conditions: oligo 7 (5′-AAA-AGA-AGA-A); 10 mM phosphate, 1 mM EDTA, 140 mM NaCl, pH 7.2
Text: 2. Upon formation of DNA duplexes (dsDNA) from single strand DNA, the extinction coefficient decreases (hypochromicity). Thus, the denaturing of DNA can be followed by measuring changes in the absorbance, for example, as a function of […], the temperature where 50% of a duplex has disappeared to give single strands.
Duplexes were formed from the single-stranded oligodeoxyribonucleotides and the PNAs listed below. Typically 0.3 OD260 of the T-rich strand was hybridized with 1 equivalent of the other strand by heating to 90° C. for 5 min, cooling to room temperature and kept for 30 min and finally stored in a refrigerator at 5° C. for at least 30 min. The buffers used were all 10 mM in phosphate and 1 mM in EDTA. The low salt buffer contained no sodium chloride, whereas the medium salt buffer contained 140 mM NaCl and the high salt buffer 500 mM NaCl. The pH of all the buffers was 7.2. The melting temperature of the hybrids were determined on a Gilford Response apparatus. The following extinction coefficients were used A: 15.4 ml/μmol.cm; T: 8.8; G: 11.7 and C: 7.3 for both normal oligonucleotides and PNA. The melting curves were recorded in steps of 0.5 C/min. The Tm were determined from the maximum of the 1st derivative of the plot of A260 vs temperature.
7. 5′-AAA-AGA-AGA-A (See SEQ ID NO:13)

For 5′-TTC-TTC-TTT-T, the “Tm, Medium Salt” value was 23.0 °C.
